The numbers were not newly measured in paper PMC11533685, which cites them from elsewhere.

The target in the data set is CD80 ECD (Homo sapiens) (UniProt P33681). Description: SPR.

With CTLA4 ECD (from UniProt P16410), the Kd was 12 µM.
